Experimental data published in patent US6127355A (priority 1999, dated 2000).

Tested on: solid tumor HT-29 (human, colon adenocarcinoma)
Experiment: Colorectal Xenograft (In vivo HT-29)
Design: species or system human tumor in nu/nu mice
Conditions: total active dose 62.5 mg/kg, i.p.
Method: In this Example, the in vivo activity of some of the compounds prepared in accordance with the present invention was assessed using the Murine Leukemia Model and the Colorectal Xenograft model.
Female nu/nu mice (Harlan Sprague Dawley, Madison, Wis.), 18-24 g and 10-14 weeks old, at onset of treatment were used. The solid tumor HT-29 (human, colon adenocarcinoma) was obtained from the ATCC (HTB 38) and grown in DMEM supplemented with 10% FBS. Cells were subcultured once a week and for in vivo experiments viabilities were ≥90%. Mice were housed in microisolator filtration racks, and maintained with filtered acidified water and sterile laboratory chow ad libitum. Following one week of acclimation, tumors were established by injecting 1×10^6 harvested HT-29 tumor cells in a single subcutaneous site, on the flank of mice in the left axillary region. The tumor injection site was observed twice weekly and measured once palpable. The tumor volume for each mouse was determined by measuring two dimensions with calipers and calculated using the formula: tumor volume=(length×width^2)/2. When tumors reached the average volume of 300 mm^3, the mice were divided into their experimental groups. The non-Control groups received Camptothecin 2.5 mg/kg/day, the prodrugs being dosed on the basis of camptothecin content. The mice were sorted to evenly distribute tumor size, grouped into 5 mice/cage, and ear punched for permanent identification. Mice receiving drugs were treated i.p. 5 times a week, Monday through Friday for 5 weeks with 500 μL of test article. Mouse weight and tumor size were measured at the beginning of study and weekly through week 7. The overall growth of tumors was expressed as the percent change in tumor size calculated by subtracting mean initial tumor volume from mean tumor volume at the end of the treatment and dividing by mean initial tumor volume.

For “Camptothecin-20-O-Glycinate PEG40kDa -Amide Derivative [Compound 48]”, the “Body weight change (%)” value (week 5 (end of treatment)) was -9%, the “Mortality (%)” value (week 5 (end of treatment), 50400 min) was 0% and the “Body weight change (%)” value (week 7 (2 week post treatment)) was “+25%”.
